# Antibody variant affinities, Ab-95 light chain, assay 2

The measurements come from Engelhart et al. 2022 (doi:10.1038/s41597-022-01779-4) through the FLAb antibody collection.

Binding partner: SARS-CoV-2 spike HR2 peptide, sequence PDVDLGDISGINAS.

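The starting antibody came from a phage panning campaign against this peptide. Variants in AAYL52 differ from the parent at up to three CDR positions; double and triple changes were sampled at random. In AlphaSeq, yeast of one mating type display the scFv and yeast of the other type display the target. After mating in shaken culture at 30 °C for 16 h, diploids were selected and their barcode pairs sequenced. Read counts were normalised to the haploid input and turned into Kd by a linear fit to BCL2-family pairs of known affinity, for each replicate. Each pool was mated in three replicate cultures.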

Parent: Ab-95, a human scFv built as VH, a (GGGGS)3 linker, VL. Only the CDRs of the light chain vary.
VH: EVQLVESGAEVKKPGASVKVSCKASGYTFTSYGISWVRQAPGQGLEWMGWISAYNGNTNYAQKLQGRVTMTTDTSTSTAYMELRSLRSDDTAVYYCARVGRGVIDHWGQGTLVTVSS
VL: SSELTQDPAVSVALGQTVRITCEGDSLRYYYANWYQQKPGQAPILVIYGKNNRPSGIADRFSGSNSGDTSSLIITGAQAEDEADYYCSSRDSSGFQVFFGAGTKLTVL

The parent's light chain CDRs are EGDSLRYYYAN, GKNNRPS, SSRDSSGFQVF; each variant's own CDRs replace them letter for letter.
All variants listed here change Y31 of the VL, counted from its first residue.
Values are log10 of the apparent Kd in nM; lower means stronger binding.
A mean of the replicates is given; it leaves out those without a signal.
"nd" means that the variant was in the library but no mating with the target was seen in any replicate; the authors take this as a sign of poor binding, and no number exists.
Nonspecific signal, from three strains lacking the peptide, appeared in 28% of pairings of library AAYL52, centred on 3.91 (5% of these signals below 2.90); values are not corrected for it.
Parent in this assay: reference entry 2.31, copy in this library 2.25.

- EGDSLRYYCEN / GKNNRPS / SSRDSSGFQVF: 3.65 (2 of 3 replicates)
- EGSSLRYYIAN / GKNNRPS / SSRDSSGFQVF: 2.44 (3 of 3 replicates)
- EGDSLRYPHAN / GKNNRPS / SSRDSSGFQVC: 2.89 (3 of 3 replicates)
- EGDSLRYYSAN / GKNNRPS / SSRDSSGFQVF: 1.06 (3 of 3 replicates)
- EGDSLRYYQDC / GKNNRPS / SSRDSSGFQVF: 3.77 (2 of 3 replicates)
- EGDSLRYYSAN / GKINRPS / SSRDNSGFQVF: 3.83 (2 of 3 replicates)
- EGDSLRYYGAN / GKNNRPS / SSVDSSGHQVF: nd (0 of 3 replicates)
- EGDSLRYYGAN / GVNCRPS / SSRDSSGFQVF: 2.97 (3 of 3 replicates)
- EGDSLRYYQCN / GKNNRPS / SSRWSSGFQVF: 3.06 (2 of 3 replicates)
- PGDSLRYYFAN / GKNNRPS / SDRDSSGFQVF: 3.51 (1 of 3 replicates)
- EGDSLFYYLAN / GKNNRPS / SSRDSSGFQVS: 3.54 (3 of 3 replicates)
- EGDSLRYYPAN / SKNNRPS / SSRDISGFQVF: 1.71 (3 of 3 replicates)
- EGDSLRYYWAN / GKNLRPS / SSRDSSGCQVF: 4.78 (3 of 3 replicates)
- AGDSLRYYAAN / GKNNRPS / WSRDSSGFQVF: 2.01 (3 of 3 replicates)
- EGDSLRYYCAM / GKNNRPS / SSRDSSGVQVF: 4.23 (2 of 3 replicates)
- EGDSLRYYFAN / GKNNRPS / ISRDSSHFQVF: 3.72 (2 of 3 replicates)
- EGDSLRYQEAN / GKNNRPS / TSRDSSGFQVF: 0.98 (3 of 3 replicates)
- EGDSLRYYEAN / GKNNRPS / STKDSSGFQVF: 3.16 (3 of 3 replicates)
- EADSLVYYCAN / GKNNRPS / SSRDSSGFQVF: 3.35 (2 of 3 replicates)
- VGDSLRYYLLN / GKNNRPS / SSRDSSGFQVF: 4.10 (1 of 3 replicates)
- EGDSLRYRMAN / GKNNRPS / SDRDSSGFQVF: 2.92 (3 of 3 replicates)
- EGDSLRYYDAN / GKNERPS / RSRDSSGFQVF: 0.90 (3 of 3 replicates)
- EGDSLRYYRAN / GKLNRPF / SSRDSSGFQVF: 4.17 (1 of 3 replicates)
- EGDSLRYYEAN / GKNNRPS / SSQDPSGFQVF: 1.93 (3 of 3 replicates)
- EIDSLRYYDAN / GKVNRPS / SSRDSSGFQVF: 2.00 (3 of 3 replicates)
- EGFSLRYYAAN / GKPNRPS / SSRDSSGFQVF: 4.61 (3 of 3 replicates)
- EGDSLRYYTYN / GKNNRPS / SSRDSCGFQVF: 4.46 (1 of 3 replicates)
- EGDSLRYYDAN / GKANRPS / SSRDSSAFQVF: 1.72 (3 of 3 replicates)
- EGDSLRYYEAN / GKNNRPS / SSRDSSGFQVF: 0.99 (3 of 3 replicates)
- EGCSLRYYQAN / GKNNRPS / FSRDSSGFQVF: 3.87 (2 of 3 replicates)
- EGDSLRYYRAN / GKNNRNS / SSRDSSGFQVF: 2.59 (3 of 3 replicates)
- EGDSLRYAFAN / GKNNRPS / SSGDSSGFQVF: 2.17 (3 of 3 replicates)
- EGDSLRYYHAN / GKNNAPS / SSRDSSGFQVF: 2.13 (3 of 3 replicates)
- EGDSDRYYFAN / GKNNRPS / RSRDSSGFQVF: 5.75 (1 of 3 replicates)
- EGDSLRQYFAN / GKNNRPS / SSQDSSGFQVF: 3.36 (3 of 3 replicates)
- EGDSLRYYWAN / IKNNRPS / SSRDSSGSQVF: 4.52 (1 of 3 replicates)